Experimental data as given in patent US8754089B2, “Heterocyclic compounds and their uses” (Amgen Inc., priority 2009, dated 2014).

Sequences of proteins named here, by UniProt entry; tags and fusion partners are left off. A change or cut given only in a name is not applied to a line headed by its entry.
UniProt O00329: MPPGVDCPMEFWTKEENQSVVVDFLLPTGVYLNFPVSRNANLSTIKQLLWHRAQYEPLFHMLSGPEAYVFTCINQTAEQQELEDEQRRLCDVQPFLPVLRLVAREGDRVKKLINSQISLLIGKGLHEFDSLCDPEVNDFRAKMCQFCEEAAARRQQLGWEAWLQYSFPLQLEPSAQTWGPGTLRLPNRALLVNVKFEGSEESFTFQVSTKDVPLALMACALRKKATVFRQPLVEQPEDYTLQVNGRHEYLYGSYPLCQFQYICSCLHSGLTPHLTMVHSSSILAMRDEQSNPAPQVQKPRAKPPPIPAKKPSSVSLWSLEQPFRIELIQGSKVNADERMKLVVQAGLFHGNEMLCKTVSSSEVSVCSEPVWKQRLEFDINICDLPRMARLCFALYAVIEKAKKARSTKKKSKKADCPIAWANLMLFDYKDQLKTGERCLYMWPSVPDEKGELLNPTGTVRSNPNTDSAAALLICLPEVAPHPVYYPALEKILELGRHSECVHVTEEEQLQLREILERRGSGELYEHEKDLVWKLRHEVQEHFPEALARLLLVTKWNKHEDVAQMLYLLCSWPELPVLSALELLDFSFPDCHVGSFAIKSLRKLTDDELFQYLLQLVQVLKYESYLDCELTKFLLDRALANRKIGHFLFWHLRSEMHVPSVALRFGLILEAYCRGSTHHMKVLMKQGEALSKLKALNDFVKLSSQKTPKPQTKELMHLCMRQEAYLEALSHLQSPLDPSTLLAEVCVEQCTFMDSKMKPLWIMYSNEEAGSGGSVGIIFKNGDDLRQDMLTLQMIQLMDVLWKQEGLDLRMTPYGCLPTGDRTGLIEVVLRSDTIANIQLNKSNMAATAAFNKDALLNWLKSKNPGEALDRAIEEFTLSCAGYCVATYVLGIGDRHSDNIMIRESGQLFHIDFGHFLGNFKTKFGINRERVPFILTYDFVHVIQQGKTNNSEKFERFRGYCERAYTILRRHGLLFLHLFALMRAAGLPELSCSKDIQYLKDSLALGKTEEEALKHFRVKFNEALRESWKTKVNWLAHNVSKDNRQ
UniProt P42338, whole entry, looked up, species assumed: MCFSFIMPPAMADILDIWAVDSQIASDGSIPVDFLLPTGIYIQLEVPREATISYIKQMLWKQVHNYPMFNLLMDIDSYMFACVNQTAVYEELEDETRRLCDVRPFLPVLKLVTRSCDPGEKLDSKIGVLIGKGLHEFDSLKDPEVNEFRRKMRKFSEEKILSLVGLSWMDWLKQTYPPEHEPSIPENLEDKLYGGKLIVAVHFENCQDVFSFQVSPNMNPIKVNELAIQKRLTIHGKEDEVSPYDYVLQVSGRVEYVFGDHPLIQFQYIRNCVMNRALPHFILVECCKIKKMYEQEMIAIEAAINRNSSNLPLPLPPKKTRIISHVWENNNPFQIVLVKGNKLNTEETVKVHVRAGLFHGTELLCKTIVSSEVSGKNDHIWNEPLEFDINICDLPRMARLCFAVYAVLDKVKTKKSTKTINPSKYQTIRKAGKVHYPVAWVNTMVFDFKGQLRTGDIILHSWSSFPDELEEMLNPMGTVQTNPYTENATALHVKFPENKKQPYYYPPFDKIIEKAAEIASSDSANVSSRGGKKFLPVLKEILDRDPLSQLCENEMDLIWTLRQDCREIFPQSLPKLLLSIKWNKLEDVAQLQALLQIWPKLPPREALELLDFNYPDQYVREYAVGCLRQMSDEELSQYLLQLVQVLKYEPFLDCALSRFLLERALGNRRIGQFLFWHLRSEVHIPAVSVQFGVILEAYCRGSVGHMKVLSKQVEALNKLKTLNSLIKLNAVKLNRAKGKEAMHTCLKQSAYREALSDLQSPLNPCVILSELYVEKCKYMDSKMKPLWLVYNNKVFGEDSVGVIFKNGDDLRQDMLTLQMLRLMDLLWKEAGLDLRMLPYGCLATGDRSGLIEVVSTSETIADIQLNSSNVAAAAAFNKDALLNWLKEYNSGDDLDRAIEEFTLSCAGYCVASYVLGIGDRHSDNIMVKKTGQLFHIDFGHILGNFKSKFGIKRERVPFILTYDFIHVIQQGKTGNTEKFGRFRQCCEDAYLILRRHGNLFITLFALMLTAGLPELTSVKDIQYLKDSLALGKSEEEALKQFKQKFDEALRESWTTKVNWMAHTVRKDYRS

Assays:
PI3Kδ = PI3Kδ (Homo sapiens (Human), UniProt O00329); assay: PI3Kδ Alphascreen assay; type: biochemical
p110β = p110β (Homo sapiens (Human), UniProt P42338); settings: read-out: potency on beta; cited from earlier work

| Ki (PI3Kδ) | Structure (SMILES) | IC50 (p110β) |
| --- | --- | --- |
| 21500 nM | C[C@@H](Nc1ncnc2[nH]cnc12)c1nc2ccc(F)cn2c(=O)c1-c1ccccn1 [7-fluoro-2-((1R)-1-(9H-purin-6-ylamino)ethyl)-3-(2-pyridinyl)-4H-pyrido[1,2-a]pyrimidin-4-one] |  |
| 63.7 nM | C[C@H](Nc1ncnc(N)c1C#N)c1[nH]c2ccc(F)cc2c(=O)c1-c1cc(F)cc(F)c1 [4-amino-6-(((1S)-1-(3-(3,5-difluorophenyl)-6-fluoro-4-oxo-1,4-dihydro-2-quinolinyl)ethyl)amino)-5-pyrimidinecarbonitrile] |  |
| 80.2 nM | Cc1cccc2nc(C(C)Nc3ncnc4[nH]cnc34)c(-c3ccccn3)c(=O)n12 (stereo not drawn) [6-methyl-2-(1-(9H-purin-6-ylamino)ethyl)-3-(2-pyridinyl)-4H-pyrido[1,2-a]pyrimidin-4-one] |  |
|  | Cc1cc(C(C)Nc2ccccc2)c2nc(N3CCOCC3)cc(=O)n2c1 (stereo not drawn) [TGX-221] | 7 nM |
| 360 nM | CC(Nc1ncnc2[nH]cnc12)c1nc2ccc(F)cn2c(=O)c1-c1cccc(F)c1 (racemic) [7-fluoro-3-(3-fluorophenyl)-2-(1-(9H-purin-6-ylamino)-ethyl)-4H-pyrido[1,2-a]pyrimidin-4-one] |  |
| 19800 nM | C[C@@H](Nc1ncnc2[nH]cnc12)c1nc2ccc(F)cn2c(=O)c1-c1cccc(F)c1 [7-fluoro-3-(3-fluorophenyl)-2-((1R)-1-(9H-purin-6-ylamino)ethyl)-4H-pyrido[1,2-a]pyrimidin-4-one] |  |
| 15.9 nM | CC(Nc1ncnc(N)c1C#N)c1nc2ccccn2c(=O)c1-c1ccccc1 (racemic) [4-amino-6-((1-(4-oxo-3-phenyl-4H-pyrido[1,2-a]pyrimidin-2-yl)ethyl)amino)-5-pyrimidinecarbonitrile] |  |
| 184 nM | C[C@H](Nc1ncnc2[nH]cnc12)c1nc2ccc(F)cn2c(=O)c1-c1ccccn1 [7-fluoro-2-((1S)-1-(9H-purin-6-ylamino)ethyl)-3-(2-pyridinyl)-4H-pyrido[1,2-a]pyrimidin-4-one] |  |
| 6320 nM | C[C@@H](Nc1ncnc(N)c1C#N)c1nc2ccccn2c(=O)c1-c1ccccc1 [4-amino-6-(((1R)-1-(4-oxo-3-phenyl-4H-pyrido[1,2-a]pyrimidin-2-yl)ethyl)amino)-5-pyrimidinecarbonitrile] |  |
